The subject of series [1] is Full length human WASP, TAP-tagged at the C-terminus (Myc-WASP-TAP).
The subject of series [2] is Full length human N-WASP, TAP-tagged at the C-terminus (Myc-N-WASP-TAP).

The source of these data is patent publication US20060003399.

In series [1], GST-tev-Rac1 came in with a Barbed ends of 1.4 nM and a Barbed ends % of max. of 12%. Moreover, in series [2], the Barbed ends was found to be 1.9 nM and the Barbed ends % of max. was 28%.
